Measured values as given in publication PMC10698194 (Nature Communications, 2023).
Several values for one entry are separate records, joined by “and”; a condition that tells them apart may be missing. Identical values can stand only once.

The chains behind the UniProt entries cited, without tags or fusion partners.
UniProt P35372, whole entry: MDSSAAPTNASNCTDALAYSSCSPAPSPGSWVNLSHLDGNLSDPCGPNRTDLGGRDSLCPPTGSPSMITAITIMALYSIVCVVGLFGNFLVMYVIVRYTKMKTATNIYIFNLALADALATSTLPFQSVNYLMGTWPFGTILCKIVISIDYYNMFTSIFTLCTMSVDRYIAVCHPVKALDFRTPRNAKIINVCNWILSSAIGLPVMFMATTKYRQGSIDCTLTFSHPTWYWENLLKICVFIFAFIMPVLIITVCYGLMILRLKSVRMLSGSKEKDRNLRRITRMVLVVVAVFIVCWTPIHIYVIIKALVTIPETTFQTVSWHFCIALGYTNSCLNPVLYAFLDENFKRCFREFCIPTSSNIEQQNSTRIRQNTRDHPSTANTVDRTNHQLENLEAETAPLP
UniProt P41143, whole entry: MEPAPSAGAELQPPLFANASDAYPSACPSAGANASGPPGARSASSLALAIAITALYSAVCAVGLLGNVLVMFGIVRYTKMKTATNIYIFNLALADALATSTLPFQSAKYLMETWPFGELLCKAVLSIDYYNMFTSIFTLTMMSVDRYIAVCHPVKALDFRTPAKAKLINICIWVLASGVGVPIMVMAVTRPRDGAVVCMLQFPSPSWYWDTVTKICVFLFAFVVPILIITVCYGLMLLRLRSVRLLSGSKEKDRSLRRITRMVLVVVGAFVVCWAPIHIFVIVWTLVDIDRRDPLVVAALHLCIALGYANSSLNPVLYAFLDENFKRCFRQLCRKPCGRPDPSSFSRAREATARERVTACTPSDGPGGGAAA

Assays:
[1] = molecular target: T1, human MOR (Homo sapiens, UniProt P35372); experiment: [35S]GTPγS binding assay, CHO membranes; assay type: biochemical
T1 construct: expressed in transfected cells

[2] = molecular target: T2, human DOR (Homo sapiens, UniProt P41143); experiment: [35S]GTPγS binding assay, CHO membranes; assay type: biochemical
T2 construct: expressed in transfected cells

| Substance | agonist response at MOR, Figure S13a ([1]; Log [ligand] (M) -5) | agonist response at MOR, Figure S13a ([1]; Log [ligand] (M) -6) | agonist response at MOR, Figure S13a ([1]; Log [ligand] (M) -6.5) | agonist response at MOR, Figure S13a ([1]; Log [ligand] (M) -7) | agonist response at MOR, Figure S13a ([1]; Log [ligand] (M) -7.5) | agonist response at MOR, Figure S13a ([1]; Log [ligand] (M) -8) | agonist response at MOR, Figure S13a ([1]; Log [ligand] (M) -8.5) | agonist response at MOR, Figure S13a ([1]; Log [ligand] (M) -10) | agonist response at DOR, Figure S13b ([2]; Log [ligand] (M) -5) | agonist response at DOR, Figure S13b ([2]; Log [ligand] (M) -6) | agonist response at DOR, Figure S13b ([2]; Log [ligand] (M) -6.5) | agonist response at DOR, Figure S13b ([2]; Log [ligand] (M) -7) | agonist response at DOR, Figure S13b ([2]; Log [ligand] (M) -7.5) | agonist response at DOR, Figure S13b ([2]; Log [ligand] (M) -8) | agonist response at DOR, Figure S13b ([2]; Log [ligand] (M) -8.5) | agonist response at DOR, Figure S13b ([2]; Log [ligand] (M) -12) | Emax (%) DOR ([2]; relative to DPDPE) [%] |
| --- | --- | --- | --- | --- | --- | --- | --- | --- | --- | --- | --- | --- | --- | --- | --- | --- | --- |
| DAMGO [reference compound] | 110.2 and 102.8 and 103.1 | 98.6 and 91.7 and 109.2 | 90.1 and 100.8 and 91 | 76.1 and 76 and 90.9 | 70.6 and 49.3 and 71.3 | 39.6 and 48.5 and 66.2 | 33.8 | 8.2 and 4.9 and 5 |  |  |  |  |  |  |  |  |  |
| DPDPE |  |  |  |  |  |  |  |  | 99.4 and 102.9 and 94.5 | 101.6 and 102.5 and 107.9 | 101.6 and 91.3 and 92.6 | 95 and 94.9 and 92.5 | 69.4 and 66.4 and 73.4 | 46.7 and 63 and 48.8 | 14.9 and 20.6 and 24.6 | 0 | 100 |
